Data taken from article PMC9080097, “Identification of absorbed constituents and evaluation of the pharmacokinetics of main compounds after oral administration of yindanxinnaotong by UPLC-Q-TOF-MS and UPLC-QqQ-MS” (RSC Advances, 2018).

Key:
[1] = Stability of the analytes in rat plasma QC samples (short-term, autosampler, freeze-thaw, long-term); settings: n = 6
[2] = Pharmacokinetics study in rats after oral administration of YDXNT (UPLC-QqQ-MS of plasma); settings: rat plasma, oral YDXNT 4.8 g kg^−1 d^−1 (2.4 g kg^−1 in source); for C max / T max: n = 6, mean ± SD; for AUC0–INF / MRT / T 1/2: n = 6, non-compartmental; for AUC0–t: n = 6, sampling to 24 h, non-compartmental
[3] = 1 ng mL^−1, -20°C for four weeks
[4] = 1 ng mL^−1, room temperature for 6 h before sample preparation
[5] = 1 ng mL^−1, room temperature for 12 h in the autosampler after sample preparation
[6] = 1 ng mL^−1, three freeze-thaw cycles -20°C to ambient temperature
[7] = 10 ng mL^−1, -20°C for four weeks
[8] = 10 ng mL^−1, room temperature for 6 h before sample preparation
[9] = 10 ng mL^−1, room temperature for 12 h in the autosampler after sample preparation
[10] = 10 ng mL^−1, three freeze-thaw cycles -20°C to ambient temperature
[11] = 100 ng mL^−1, -20°C for four weeks
[12] = 100 ng mL^−1, room temperature for 6 h before sample preparation
[13] = 100 ng mL^−1, room temperature for 12 h in the autosampler after sample preparation
[14] = 100 ng mL^−1, three freeze-thaw cycles -20°C to ambient temperature

Substance: ginkgolide B [GB]
- Long-term stability Accuracy [1, 3]: 98.45 ± 5.75%
- Short-term stability Accuracy [1, 4]: 96.95 ± 2.87%
- Autosampler stability Accuracy [1, 5]: 101.66 ± 4.73%
- Freeze–thaw strability (three cycles) Accuracy [1, 6]: 96.53 ± 5.48%
- Long-term stability Accuracy [1, 7]: 95.72 ± 6.59%
- Short-term stability Accuracy [1, 8]: 98.25 ± 5.91%
- Autosampler stability Accuracy [1, 9]: 95.45 ± 5.97%
- Freeze–thaw strability (three cycles) Accuracy [1, 10]: 97.82 ± 4.31%
- Long-term stability Accuracy [1, 11]: 97.38 ± 4.39%
- Short-term stability Accuracy [1, 12]: 98.74 ± 4.06%
- Autosampler stability Accuracy [1, 13]: 99.11 ± 7.23%
- Freeze–thaw strability (three cycles) Accuracy [1, 14]: 96.55 ± 5.94%
- C max [2]: 76.54 ± 15.43 ng/mL
- T max [2]: 1.00 ± 0.35 h
- AUC0–INF [2]: 691.00 ± 96.83
- MRT [2]: 10.58 ± 2.63 h
- T 1/2 [2]: 7.84 ± 3.53 h
- AUC0–t [2]: 610.18 ± 91.45

Substance: ginkgolide C [GC]
- Long-term stability Accuracy [1, 3]: 100.07 ± 10.14%
- Short-term stability Accuracy [1, 4]: 100.24 ± 4.70%
- Autosampler stability Accuracy [1, 5]: 98.49 ± 6.22%
- Freeze–thaw strability (three cycles) Accuracy [1, 6]: 104.74 ± 8.47%
- Long-term stability Accuracy [1, 7]: 100.48 ± 8.62%
- Short-term stability Accuracy [1, 8]: 104.11 ± 3.38%
- Autosampler stability Accuracy [1, 9]: 102.24 ± 5.11%
- Freeze–thaw strability (three cycles) Accuracy [1, 10]: 100.15 ± 4.52%
- Long-term stability Accuracy [1, 11]: 93.97 ± 4.38%
- Short-term stability Accuracy [1, 12]: 94.58 ± 5.63%
- Autosampler stability Accuracy [1, 13]: 91.17 ± 5.33%
- Freeze–thaw strability (three cycles) Accuracy [1, 14]: 96.22 ± 5.73%
- C max [2]: 35.35 ± 10.28 ng/mL
- T max [2]: 1.50 ± 0.23 h
- AUC0–INF [2]: 297.49 ± 46.59
- MRT [2]: 7.77 ± 2.62 h
- T 1/2 [2]: 5.45 ± 1.48 h
- AUC0–t [2]: 281.80 ± 41.33
